This is a selection; strong and weak results do not stand in their true shares. Calls of active or inactive are those of the source.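 The calls were made as follows: active = inhibition above a per-plate cutoff, the plate's mean sample inhibition plus 3 SD (cut at about 24% in these data); inactive = the rest.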

A short description of the test: calcium signal blockers in parental CHO-K1 cells – cell-based, Fluo-8 calcium fluorescence, full deck, 1536-well, counter-screen for M1 antagonist project, primary screen (AID 602250).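 Also: 0% = DMSO plus EC80 ATP and 100% = DMSO alone without ATP.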 The following applies: ATP-induced calcium, Fluo-8 fluorescence, at 3 µM, active compounds read high.
With `CCOC(=O)N1CCC(Nc2ccc(C)cc2)CC1`, the inhibition was inactive: 6.51%. In the case of `COc1cccc(C(c2nnnn2C(C)(C)C)N2CCC(n3c(=O)[nH]c4ccccc43)CC2)c1OC` (stereo not drawn), the inhibition was inactive: 16.9%.

As to `N/C(=N\O)c1c(N)no[n+]1[O-]`, the inhibition is inactive: -16.9%. The value for `O=c1[nH]c2ccccc2n1C1CCN(C(c2cccs2)c2nnnn2C2CCCC2)CC1` (stereo not drawn) was inactive: -14.8%; that for `O=C(OC1CN2CCC1CC2)C1c2ccccc2C=Cc2ccccc21` (stereo not drawn) was inactive: -7.79%.

Turning to `CCCCn1nnnc1C(c1cccc(OC)c1OC)N1CCC(n2c(=O)[nH]c3ccccc32)CC1` (stereo not drawn), the inhibition is inactive: 3.15%. The value for `COc1cc(C(=O)NCC2(N3CCOCC3)CCCCC2)cc(OC)c1C` was inactive: -10.2%; that for `CCCCn1nnnc1C(c1ccccc1)N1CCC(n2c(=O)[nH]c3ccccc32)CC1` (stereo not drawn) was inactive: 9.99%; that for `O=C(NCC1(N2CCOCC2)CCCCC1)c1cc(Br)ccc1Cl` was inactive: -21.7%. The value for `O=c1[nH]c2ccccc2n1C1CCN(C(c2cccs2)c2nnnn2C2CCCCC2)CC1` (stereo not drawn) was inactive: -10.1%; that for `O=c1[nH]c2ccccc2n1C1CCN(C(c2ccnc3ccccc23)c2nnnn2C2CCCC2)CC1` (stereo not drawn) was inactive: -17.4%.

In the case of `COc1ccc(C(=O)NCC2(N3CCOCC3)CCCCC2)cc1OC`, the inhibition was inactive: -12.8%.

As for `CN(C)C1(CNC(=O)c2cccc(C#N)c2)CCCCC1`, the inhibition was inactive: -10.4%. The value for `O=c1[nH]c2ccccc2n1C1CCN(C(c2ccccc2)c2nnnn2C2CCCC2)CC1` (stereo not drawn) was inactive: -21.4%; that for `CCCN1CCC(Nc2cc(OC)cc(OC)c2)CC1` was inactive: -13.3%. The value for `Cc1cc(N(CCCl)CCCl)ccc1C=O` was inactive: -10.8%; that for `c1ccc(CN2CCC(Nc3ccccc3)CC2)cc1` was inactive: -9.03%; that for `CC(C)(C)n1nnnc1C(c1cccc2ccccc12)N1CCC(n2c(=O)[nH]c3ccccc32)CC1` (stereo not drawn) was inactive: -14.2%. Turning to `N#Cc1ccc(C(=O)NCC2(N3CCCCC3)CCCCC2)cc1`, the inhibition is inactive: -7.99%.

As for `CC(C)(C)OC(=O)N1CCC(N(C(=O)c2ccccc2)c2ccc(Cl)cc2)CC1`, the inhibition was inactive: -18.9%. With `COc1ccc(C(c2nnnn2C2CCCCC2)N2CCC(n3c(=O)[nH]c4ccccc43)CC2)cc1` (stereo not drawn), the inhibition was inactive: 6.47%. The value for `CCN1CCC(Nc2cccc(F)c2)CC1` was inactive: -2.33%; that for `CC(C)(C)n1nnnc1C(c1ccnc2ccccc12)N1CCC(n2c(=O)[nH]c3ccccc32)CC1` (stereo not drawn) was inactive: -2.63%.

`Cc1ccccc1NC1(C#N)CCN(Cc2ccccc2)CC1`: the inhibition is inactive: -3.63%.

With `CN(C)c1ccc(C(=O)NCC2(N3CCCCC3)CCCCC2)cc1`, the inhibition was inactive: -19.8%. The value for `Cn1c(=O)[nH]cc(N(CCCl)CCCl)c1=O` was inactive: -3.32%; that for `O=C(NCC1(N2CCCCC2)CCCCC1)c1ccco1` was inactive: -12.6%; that for `CCC(c1nnnn1C1CCCCC1)N1CCC(n2c(=O)[nH]c3ccccc32)CC1` (stereo not drawn) was inactive: -13.3%. The value for `COc1cccc(C(c2nnnn2C2CCCCC2)N2CCC(n3c(=O)[nH]c4ccccc43)CC2)c1OC` (stereo not drawn) was inactive: 0.77%; that for `CC(=O)N(c1ccccc1)C1CCNCC1` was inactive: -11.9%. The value for `COc1cc(OC)cc(C(=O)NCC2(N3CCCCC3)CCCCC2)c1` was inactive: -20.4%.

In the case of `O=c1[nH]c2ccccc2n1C1CCN(C(c2ccnc3ccccc23)c2nnnn2C2CCCCC2)CC1` (stereo not drawn), the inhibition was inactive: -23%. Consider `Fc1ccccc1NC1CCN(Cc2ccccc2)CC1`, for which the inhibition is inactive: -6.44%. Take `Cc1ccc(C(=O)NCC2(N3CCCCC3)CCCCC2)o1`: the inhibition was inactive: 0.21%. The value for `Cc1ccc(NC2(C#N)CCN(Cc3ccccc3)CC2)cc1` was inactive: -4.64%. For `COc1cccc(C(c2nnnn2C2CCCC2)N2CCC(n3c(=O)[nH]c4ccccc43)CC2)c1OC` (stereo not drawn), the inhibition is inactive: -16.8%. On to `COc1cc(OC)cc(C(=O)NCC2(N3CCOCC3)CCCCC2)c1`, for which the inhibition was inactive: -20.6%. In the case of `COc1cccc(C(=O)N(c2cc(C)cc(C)c2)C2CCN(C(=O)OC(C)(C)C)CC2)c1`, the inhibition was inactive: -3.49%. The value for `CCC(CO)(C(=O)OC1CN2CCC1CC2)c1ccccc1` (stereo not drawn) was inactive: 22.2%. The value for `CN1CCC(Nc2ccc(Cl)cc2)CC1` was inactive: -3.23%. The value for `CN1CCC(Nc2ccc(F)c(Cl)c2)CC1` was inactive: -6.2%; that for `CCOc1ncccc1C(=O)NCC1(N2CCOCC2)CCCCC1` was inactive: -0.53%; that for `O=C(O)C1(Nc2ccccc2)CCN(Cc2ccccc2)CC1` was inactive: -9.41%. On to `NN(c1ccccc1)C1CCN(CCc2ccccc2)CC1`, for which the inhibition is inactive: -5.25%.

`CC(C)(C)OC(=O)N1CCC(Nc2ccccc2)CC1`: the inhibition was inactive: -7.42%. The value for `O=c1[nH]c2ccccc2n1C1CCN(C(c2cc3ccccc3o2)c2nnnn2C2CCCC2)CC1` (stereo not drawn) was inactive: -25.2%; that for `CCCOc1ccc(C(=O)NCC2(N(C)C)CCCCC2)cc1` was inactive: -12.4%.

As for `Cc1cc(C)cc(N(C(=O)c2ccccc2)C2CCN(C(=O)OC(C)(C)C)CC2)c1`, the inhibition is inactive: -15.3%. `O=C(NCC1(N2CCCCC2)CCCCC1)c1ccc(Cl)nc1`: the inhibition was inactive: 1.76%. The value for `O=c1[nH]c2ccccc2n1C1CCN(C(c2ccccc2OC(F)(F)F)c2nnnn2C2CCCCC2)CC1` (stereo not drawn) was inactive: 2.72%; that for `O=C(NCC1(N2CCOCC2)CCCCC1)c1cc2ccccc2o1` was inactive: -3.21%.

Regarding `COc1ccc(Cl)cc1C(=O)NCC1(N2CCOCC2)CCCCC1`, the inhibition is inactive: -25.8%. The value for `N#CC1(Nc2ccccc2)CCN(Cc2ccccc2)CC1` was inactive: -9.45%. The value for `O=C(NCC1(N2CCCCC2)CCCCC1)c1ccc(Cl)s1` was inactive: -17.4%; that for `O=C(OC1CN2CCC1CC2)C1c2ccccc2Oc2ccccc21` (stereo not drawn) was inactive: -6.29%; that for `O=c1[nH]c2ccccc2n1C1CCN(C(c2cc3ccccc3o2)c2nnnn2C2CCCCC2)CC1` (stereo not drawn) was inactive: -9.41%. The value for `CCCCn1nnnc1C(c1ccc(OC)cc1)N1CCC(n2c(=O)[nH]c3ccccc32)CC1` (stereo not drawn) was inactive: -20.1%; that for `CCOC(=O)N1CCC(Nc2ccc(OC)cc2)CC1` was inactive: -11.3%; that for `COc1ccc(C(=O)NCC2(N3CCCCC3)CCCCC2)c(OC)c1OC` was inactive: -7.03%. As for `CC(C)(C)OC(=O)N1CCC(N(C(=O)c2ccccc2)c2ccc(F)cc2)CC1`, the inhibition was inactive: -9.82%.

Consider `CCC(c1nnnn1C1CCCC1)N1CCC(n2c(=O)[nH]c3ccccc32)CC1` (stereo not drawn), for which the inhibition is inactive: -11.5%. The value for `COc1ccc(C(=O)NCC2(N3CCCCC3)CCCCC2)cc1` was inactive: -8.14%; that for `CCCCn1nnnc1C(CC)N1CCC(n2c(=O)[nH]c3ccccc32)CC1` (stereo not drawn) was inactive: -6.47%; that for `O=C(NCC1(N2CCCCC2)CCCCC1)c1cccs1` was inactive: 3.82%. As to `CCCCn1nnnc1C(c1cccs1)N1CCC(n2c(=O)[nH]c3ccccc32)CC1` (stereo not drawn), the inhibition was inactive: 21.9%. The value for `O=C(NCC1(N2CCCCC2)CCCCC1)c1ccc(=O)[nH]c1` was inactive: -6.51%; that for `Cc1cccc(NC2(C#N)CCN(Cc3ccccc3)CC2)c1` was inactive: -21.6%. Turning to `CSc1ccccc1C(=O)NCC1(N2CCCCC2)CCCCC1`, the inhibition is inactive: -6.22%. Regarding `O=c1[nH]c2ccccc2n1C1CCN(C(c2ccccc2)c2nnnn2C2CCCCC2)CC1` (stereo not drawn), the inhibition is inactive: -2.47%. The value for `CCOC(=O)N1CCC(Nc2cccc(C)c2)CC1` was inactive: -7.63%; that for `COc1cc(C(=O)NCC2(N(C)C)CCCCC2)ccc1OC(F)F` was inactive: 12.4%; that for `O=c1[nH]c2ccccc2n1C1CCN(C(c2cccc3ccccc23)c2nnnn2C2CCCC2)CC1` (stereo not drawn) was inactive: -3.29%. The value for `O=C1CCN(Cc2ccccc2)CC1` was inactive: -12.7%; that for `CC(C)(C)n1nnnc1C(c1ccccc1)N1CCC(n2c(=O)[nH]c3ccccc32)CC1` (stereo not drawn) was inactive: 9.27%. The value for `CCOc1ccc(C)cc1CN(CCCl)CCCl` was inactive: -0.04%; that for `COc1ccc(NC2CCN(CCc3ccccc3)CC2)c(OC)c1` was inactive: -28.4%; that for `CCOC(=O)N1CCC(Nc2ccc(F)cc2)CC1` was inactive: -1.92%.

On to `O=P1(N(CCCl)CCCl)SCCCS1`, for which the inhibition is inactive: -2.77%. As for `CCCCn1nnnc1C(c1cc2ccccc2o1)N1CCC(n2c(=O)[nH]c3ccccc32)CC1` (stereo not drawn), the inhibition is inactive: -23.3%. The value for `CCCCOc1ccc(C(=O)NCC2(N3CCOCC3)CCCCC2)cc1` was inactive: -10.9%. The value for `O=C(NCC1(N2CCCCC2)CCCCC1)c1ccc(F)cc1` was inactive: -1.51%. The value for `O=C(NCC1(N2CCCCC2)CCCCC1)c1cccc(C(F)(F)F)c1` was inactive: -20.4%; that for `COc1cc(C(=O)NCC2(N3CCCCC3)CCCCC2)ccc1OC(F)F` was inactive: -7.14%; that for `O=C(NCC1(N2CCOCC2)CCCCC1)c1cc(=O)[nH]c2ccccc12` was inactive: -13.4%. Consider `CN1CCN(CCOC(=O)C(O)(c2ccccc2)c2ccccc2)CC1`, for which the inhibition was inactive: -0.09%. The value for `COc1ccc(NC2CCN(C(=O)OC(C)(C)C)CC2)cc1` was inactive: -13.3%. For `CC(C)c1ccc(C(=O)NCC2(N3CCOCC3)CCCCC2)cc1`, the inhibition was inactive: -3.91%. Consider `CCCCn1nnnc1C(c1cccc2ccccc12)N1CCC(n2c(=O)[nH]c3ccccc32)CC1` (stereo not drawn), for which the inhibition was inactive: -30.9%. The value for `O=C(NCC1(N2CCCCC2)CCCCC1)c1ccc(OC(F)F)cc1` was inactive: -9.52%; that for `CC(C)(C)n1nnnc1C(c1ccccc1OC(F)(F)F)N1CCC(n2c(=O)[nH]c3ccccc32)CC1` (stereo not drawn) was inactive: -20.4%. `O=c1[nH]c2ccccc2n1C1CCN(C(c2ccccc2OC(F)(F)F)c2nnnn2C2CCCC2)CC1` (stereo not drawn): the inhibition was inactive: -6.59%.

Consider `N#CC1(Nc2ccccc2)CCN(CCc2ccccc2)CC1`, for which the inhibition is inactive: -14.2%. The value for `CCN1CCC(Nc2ccc(Cl)cc2)CC1` was inactive: -6.09%. The value for `CSc1ccc(C(=O)NCC2(N3CCOCC3)CCCCC2)cc1` was inactive: -9.82%; that for `O=C(NCC1(N2CCCCC2)CCCCC1)c1cccc([N+](=O)[O-])c1` was inactive: -18.8%. The value for `CN1CCC(Nc2cccc(F)c2)CC1` was inactive: -4.32%; that for `O=C(NCC1(N2CCCCC2)CCCCC1)c1cncc(Br)c1` was inactive: -15.6%; that for `COc1ccc(C(c2nnnn2C2CCCC2)N2CCC(n3c(=O)[nH]c4ccccc43)CC2)cc1` (stereo not drawn) was inactive: 1.24%. `CCCOc1ccc(C(=O)NCC2(N(C)C)CCCCC2)cc1OC`: the inhibition was inactive: -17.5%. The value for `Cc1ccc(C(=O)NCC2(N(C)C)CCCCC2)o1` was inactive: 7.56%; that for `CC(C)c1ccc(NC2CCN(C(=O)OC(C)(C)C)CC2)cc1` was inactive: -9.7%. The value for `CCCCn1nnnc1C(c1ccccc1OC(F)(F)F)N1CCC(n2c(=O)[nH]c3ccccc32)CC1` (stereo not drawn) was inactive: -34%; that for `CN(C)c1cccc(C(=O)NCC2(N3CCCCC3)CCCCC2)c1` was inactive: -8.84%; that for `COc1ccc(CN(CCCl)CCCl)cc1Cl` was inactive: -6.77%. The value for `CCC(c1nnnn1C(C)(C)C)N1CCC(n2c(=O)[nH]c3ccccc32)CC1` (stereo not drawn) was inactive: -15.8%; that for `O=C(NCC1(N2CCOCC2)CCCCC1)c1cc(F)c(F)cc1Cl` was inactive: -11.4%; that for `COc1cc(OC)c(C(=O)NCC2(N(C)C)CCCCC2)cc1OC` was inactive: 4.61%. As for `CCCCn1nnnc1C(c1ccnc2ccccc12)N1CCC(n2c(=O)[nH]c3ccccc32)CC1` (stereo not drawn), the inhibition was inactive: 0.99%.

These data come from PubChem BioAssay AID602250 (The Scripps Research Institute Molecular Screening Center, 2012).
